Reference: ChEMBL document CHEMBL4033696, “Repurposing of Proton Pump Inhibitors as first identified small molecule inhibitors of endo-β-N-acetylglucosaminidase (ENGase) for the treatment of NGLY1 deficiency, a rare genetic disease” (Bioorg Med Chem Lett, 2017)
Activity calls are given as the source filed them. No cut-off for these calls is given here.

Target: T1, Cytosolic endo-beta-N-acetylglucosaminidase (Homo sapiens) (UniProt Q8NFI3)
T1 sequence (whole entry): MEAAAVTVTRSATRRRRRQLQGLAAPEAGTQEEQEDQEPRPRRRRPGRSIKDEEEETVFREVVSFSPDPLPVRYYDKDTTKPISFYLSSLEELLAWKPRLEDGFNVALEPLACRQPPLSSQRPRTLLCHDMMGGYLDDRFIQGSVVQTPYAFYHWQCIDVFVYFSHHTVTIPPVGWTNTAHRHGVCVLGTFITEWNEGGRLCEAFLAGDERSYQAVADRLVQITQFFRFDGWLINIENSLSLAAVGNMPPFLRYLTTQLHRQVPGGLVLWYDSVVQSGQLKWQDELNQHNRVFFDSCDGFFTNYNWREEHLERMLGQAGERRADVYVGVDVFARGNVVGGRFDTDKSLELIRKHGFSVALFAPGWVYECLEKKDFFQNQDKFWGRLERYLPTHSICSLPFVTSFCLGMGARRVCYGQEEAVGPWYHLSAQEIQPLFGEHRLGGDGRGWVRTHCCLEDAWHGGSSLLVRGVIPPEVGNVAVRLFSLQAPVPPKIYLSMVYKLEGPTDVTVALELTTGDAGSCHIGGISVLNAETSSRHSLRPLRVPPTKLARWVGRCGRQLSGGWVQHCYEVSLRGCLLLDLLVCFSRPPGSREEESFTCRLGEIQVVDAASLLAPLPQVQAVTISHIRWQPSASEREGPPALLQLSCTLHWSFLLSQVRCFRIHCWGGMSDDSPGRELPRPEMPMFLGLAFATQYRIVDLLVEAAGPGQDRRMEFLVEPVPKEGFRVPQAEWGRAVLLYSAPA
Assay: Inhibition of recombinant human C-MYC/DDK-tagged ENGase expressed in HEK293T cells at 100 uM using heat inactivated bovine ribonuclease B as substrate pretreated for 15 mins followed by substrate addition after 90 mins by SDS-PAGE analysis
Conditions: HEK-293T
In short: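 Recombinant human ENGase incubated with ribonuclease B substrate and test compound at 100 μM as a single-concentration screen. Reactions were then heat-inactivated and resolved on 12% SDS-PAGE as an electrophoretic mobility shift assay. Bands were stained with Coomassie blue R-250 and quantified by densitometry.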

SMILES	inhibition
C[C@@H](CN1CC(=O)NC(=O)C1)N1CC(=O)NC(=O)C1	inactive
CC(C)C[C@H](NC(=O)[C@H](Cc1ccccc1)NC(=O)c1cnccn1)B(O)O	inactive
O=C1CC2(CCCC2)CC(=O)N1CCCCN1CCN(c2ncccn2)CC1	inactive
